Test results reported in publication PMC5529018, “Discovery of novel brain permeable and G protein-biased beta-1 adrenergic receptor partial agonists for the treatment of neurocognitive disorders” (PLoS ONE, 2017).

Experiments:
[1] = Pharmacokinetic study 1, 4-hr time course; type: in vivo, Sprague-Dawley rats; conditions: rat, 10 mg/kg
Description: (§1) Two cohorts of Sprague-Dawley rats were used in two independent studies. All animals were fasted overnight before the experiment with free access to water. In study 1, a total of 18 rats were used for a 4 hr time course pharmacokinetic (PK) study. Rats were anesthetized with 3% isoflurane and catheters were implanted into the jugular and/or portal veins for compound administration and/or blood sampling at 1 to 2 days prior to the experiments as previously described. […] Four hours post-dose, rats were deeply anesthetized with isoflurane and blood samples were collected by cardiac puncture. In study 2, a total of 18 rats were used for a 20 min post-dose collection study. […] At 20 min post-dose, rats were deeply anesthetized with isoflurane and blood samples were collected by cardiac puncture. Brains were collected after perfusion with phosphate buffered saline. All plasma samples were immediately separated after collection by centrifugation (11,000 rpm for 3 minutes) and stored at −80°C until analysis. […] Tulobuterol was used as the internal standard. The flow rate was set to 0.45 ml/min. Column temperature was 25°C. […] The injection volume was 20 μl. The mass spectrometer was operated in the positive mode with multiple-reaction monitoring (MRM). […] Mobile phase A consisted of 10 mM ammonium acetate and 0.1% formic acid in LCMS grade water. […]

[2] = Microsomal stability assay, human; type: in vitro ADME; conditions: 0.1 uM
[3] = Pharmacokinetic study 2, 20-min post-dose collection; type: in vivo, Sprague-Dawley rats; conditions: rat, 10 mg/kg IV or IP
Description: as §1

SMILES: COc1ccccc1OCCNC[C@H](O)COc1ccc(O)cc1.COc1ccccc1OCCNC[C@H](O)COc1ccc(O)cc1.O=C(O)/C=C/C(=O)O [STD-101-D1, (S)-4-(2-hydroxy-3-((2-(2-methoxyphenoxy)ethyl)amino)propoxy)phenol hemifumarate]
- amount detected in the brain at 4 hrs post dose, in words [1]: only a trace
- reduction after 60 min in human microsomes, in words [2]: almost no reduction
- brain concentration relative to EC50 for ADRB1 in vitro [3]: up to 148 fold
